Yeast mating assay B: variants of the scFv Ab-14

Source: Li et al. 2023 (doi:10.1038/s41467-023-39022-2), MIT Lincoln Laboratory and A-Alpha Bio; data file from the FLAb repository.

Target peptide (SARS-CoV-2 spike, HR2 region): PDVDLGDISGINAS

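The parent was found by panning a naive human phage display library on the peptide. This is the validation round: designs drawn from the data on random variants, tested in the same kind of assay. Group labels follow the data file (Ctrl: baseline library sampled from a position-specific scoring matrix, with some repeated check sequences; En: ensemble of fine-tuned language models; GP: Gaussian process model; HC: hill climbing; Gen: genetic algorithm; Gibbs: Gibbs sampling; a sequence that several methods proposed may carry one label only). The assay is AlphaSeq: two haploid yeast populations carry antibody and antigen on their surface. Binding brings cells together so that they mate, and sequencing counts the barcode pairs among the diploids. Each replicate has its own calibration line, from reference interactions of the BCL2 family. Mating was done six times.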

Ab-14 is the parent antibody, in scFv form: VH, then a 15-residue (Gly4Ser)3 linker, then VL. The heavy chain is unchanged in all variants.
VH: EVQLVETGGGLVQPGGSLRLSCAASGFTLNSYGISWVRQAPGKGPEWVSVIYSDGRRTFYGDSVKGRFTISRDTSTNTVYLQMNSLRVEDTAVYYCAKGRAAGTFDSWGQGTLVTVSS
VL: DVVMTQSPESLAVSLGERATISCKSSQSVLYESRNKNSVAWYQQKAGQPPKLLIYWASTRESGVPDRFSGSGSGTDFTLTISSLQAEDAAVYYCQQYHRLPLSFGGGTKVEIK

Variants are written as CDR1, CDR2 and CDR3 of the light chain (limits as in the source). Parent: KSSQSVLYESRNKNSVA, WASTRES, QQYHRLPLS.
Each Kd is an estimate from the mating assay, the geometric mean of the replicates in which the pair was seen; lower is stronger.
Where no diploid with the target was found in any replicate, the entry reads "nd": below detection, most likely a poor binder, though not proof of it.
Three control strains display no target. For all light chain designs, 4% of the pairings with them gave a signal, with a median of 430 nM and one signal in twenty below 38 nM, so weak values seen in few replicates may be background.
The range of this assay differs from that of the first round, and the authors advise against merging the two.
The authors averaged sequences with at least three values out of six and counted those with two or fewer as poor binders.
Of ten entries with the parent sequence, four were seen in most replicates (averages 2.2 nM to 240 nM), three in one and three in none, so single entries are noisy.

{"CDR-L1": "HSSPSYEYESRNKNSVA", "CDR-L2": "NASTRES", "CDR-L3": "QQYHRLPLS", "group": "GP_HC", "apparent Kd": "3.9 nM", "seen in": "6 of 6"}
{"CDR-L1": "IVSQSVLGESRNKNSVA", "CDR-L2": "QTSEREY", "CDR-L3": "QQYDRLPLS", "group": "En_HC", "apparent Kd": "4.6 nM", "seen in": "6 of 6"}
{"CDR-L1": "KLSMSVRMESFVKDNVA", "CDR-L2": "ENSTREA", "CDR-L3": "QDYNRLPLS", "group": "En_HC", "apparent Kd": "46 µM", "seen in": "1 of 6"}
{"CDR-L1": "KWSTSVLYESRNKNSVA", "CDR-L2": "WASTRES", "CDR-L3": "QQYHRLPLS", "group": "Ctrl", "apparent Kd": "120 nM", "seen in": "5 of 6"}
{"CDR-L1": "TLTQVQGMESHNKDNVA", "CDR-L2": "DLSTRGN", "CDR-L3": "QQYDRLPLS", "group": "En_HC", "apparent Kd": "5.3 nM", "seen in": "6 of 6"}
{"CDR-L1": "TISQMSTLFSQNINNVA", "CDR-L2": "EVSTRLN", "CDR-L3": "QQYDRLPLM", "group": "En_Gen", "apparent Kd": "7.0 nM", "seen in": "6 of 6"}
{"CDR-L1": "KSSRSVLHESRNTNSVA", "CDR-L2": "AASTRES", "CDR-L3": "QQYHRLPLS", "group": "Ctrl", "apparent Kd": "35 nM", "seen in": "6 of 6"}
{"CDR-L1": "TLVGNIQGGMWAKKNVA", "CDR-L2": "DESTRVN", "CDR-L3": "QQYYRLPLS", "group": "En_Gibbs", "apparent Kd": "1.4 nM", "seen in": "4 of 6"}
{"CDR-L1": "KVSQSVLYESRMKNSVA", "CDR-L2": "DASTRCS", "CDR-L3": "QQYHRLPLL", "group": "GP_HC", "apparent Kd": "1.8 nM", "seen in": "6 of 6"}
{"CDR-L1": "KLPQSQLYESRNKNAVA", "CDR-L2": "QASTRES", "CDR-L3": "QQYHRLPLS", "group": "GP_Gen", "apparent Kd": "3.2 nM", "seen in": "6 of 6"}
{"CDR-L1": "KLSQSVLYESRNSNSVA", "CDR-L2": "NASTRLS", "CDR-L3": "QQYHRLPLS", "group": "GP_Gen", "apparent Kd": "850 pM", "seen in": "6 of 6"}
{"CDR-L1": "HSSGSTLYESRNKNSVA", "CDR-L2": "NASTRES", "CDR-L3": "QQYHRLPLS", "group": "GP_HC", "apparent Kd": "360 pM", "seen in": "6 of 6"}
{"CDR-L1": "KSSQSVLTESRNKNSVA", "CDR-L2": "NDSTRES", "CDR-L3": "QQYHRLPLS", "group": "Ctrl", "apparent Kd": "11 nM", "seen in": "6 of 6"}
{"CDR-L1": "KSSLSVLKEDRNKNSVA", "CDR-L2": "WASTRES", "CDR-L3": "QQYHRLPLS", "group": "Ctrl", "apparent Kd": "75 nM", "seen in": "6 of 6"}
{"CDR-L1": "KSSQSVPYESREGNSVA", "CDR-L2": "QASTRES", "CDR-L3": "QTYHRLPLS", "group": "Ctrl", "apparent Kd": "5.8 nM", "seen in": "6 of 6"}
{"CDR-L1": "KISMLSNQTFSQSNNVA", "CDR-L2": "EMVTRER", "CDR-L3": "QQYNRLPLS", "group": "En_Gen", "apparent Kd": "21 nM", "seen in": "6 of 6"}
{"CDR-L1": "KISMLQRYESKAKNSIA", "CDR-L2": "EMSRREE", "CDR-L3": "QQYHRLPLS", "group": "En_HC", "apparent Kd": "910 pM", "seen in": "6 of 6"}
{"CDR-L1": "KLGQSVAMTSRMKNNVA", "CDR-L2": "DLNTRER", "CDR-L3": "QQYHRLPLS", "group": "En_HC", "apparent Kd": "2.1 nM", "seen in": "6 of 6"}
{"CDR-L1": "KLQQSVEYESRNKNSVA", "CDR-L2": "NASTRLS", "CDR-L3": "QQYHRLPLS", "group": "GP_Gen", "apparent Kd": "550 pM", "seen in": "6 of 6"}
{"CDR-L1": "QMKASLLQGIYRQDSVA", "CDR-L2": "SDDIRAL", "CDR-L3": "QQYHHLPLS", "group": "En_Gibbs", "apparent Kd": "25 nM", "seen in": "6 of 6"}
{"CDR-L1": "KMSVHLYDAKNRDMSIA", "CDR-L2": "DEELHTI", "CDR-L3": "QQYNRLPFS", "group": "En_Gibbs", "apparent Kd": "nd", "seen in": "0 of 6"}
{"CDR-L1": "KLMQSAWLESRNFNAVA", "CDR-L2": "SASQREL", "CDR-L3": "QQYHRLPLS", "group": "GP_Gibbs", "apparent Kd": "6.3 nM", "seen in": "6 of 6"}

Repeated from above, the 2 best binders with a signal in all replicates:

{"CDR-L1": "HSSGSTLYESRNKNSVA", "CDR-L2": "NASTRES", "CDR-L3": "QQYHRLPLS", "group": "GP_HC", "apparent Kd": "360 pM", "seen in": "6 of 6"}
{"CDR-L1": "KLQQSVEYESRNKNSVA", "CDR-L2": "NASTRLS", "CDR-L3": "QQYHRLPLS", "group": "GP_Gen", "apparent Kd": "550 pM", "seen in": "6 of 6"}